From patent US20020151553A1, “Chemokine receptor antagonists and methods of use therefor” (Millennium Pharmaceuticals, Inc., priority 1996, published 2002)

Sequences of proteins named here, by UniProt entry; tags and fusion partners are left off.
UniProt P32246, whole entry: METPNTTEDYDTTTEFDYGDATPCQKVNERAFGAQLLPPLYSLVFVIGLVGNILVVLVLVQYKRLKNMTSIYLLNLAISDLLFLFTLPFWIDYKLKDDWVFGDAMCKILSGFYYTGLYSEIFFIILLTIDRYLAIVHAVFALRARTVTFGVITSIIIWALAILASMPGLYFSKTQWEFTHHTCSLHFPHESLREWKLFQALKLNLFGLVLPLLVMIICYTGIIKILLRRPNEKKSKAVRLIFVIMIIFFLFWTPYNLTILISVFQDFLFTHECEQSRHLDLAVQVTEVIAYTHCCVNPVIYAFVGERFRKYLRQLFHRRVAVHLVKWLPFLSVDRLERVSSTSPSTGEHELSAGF

Target: chemokine receptor (RANTES / MIP-1α binding) on THP-1 cell membranes (Homo sapiens, UniProt P32246)
Experiment: Receptor binding assay with 125I-RANTES or 125I-MIP-1α as ligand and THP-1 cell membranes
Conditions: read-out: IC50 (inhibitor concentration required for 50% inhibition of specific binding), 60 min at room temperature
Experimental: Membranes were prepared from THP-1 cells (ATCC #TIB202). Cells were harvested by centrifugation, washed twice with PBS (phosphate-buffered saline), and the cell pellets were frozen at −70 to −85° C. […] This procedure results in cell lysis. The suspension was mixed well to resuspend all of the frozen cell pellet. Nuclei and cell debris were removed by centrifugation of 400× g for 10 minutes at 4° C. The supernatant was transferred to a fresh tube and the membrane fragments were collected by centrifugation at 25,000× g for 30 minutes at 4° C. The supernatant was aspirated and the pellet was resuspended in freezing buffer consisting of 10 mM HEPES pH 7.5, 300 mM sucrose, 1 μg/ml each aprotinin, leupeptin, and chymostatin, and 10 μg/ml PMSF approximately 0.1 ml per each 10^8 cells). All clumps were resolved using a minihomogenizer, and the total protein concentration was determined using a protein assay kit (Bio-Rad, Hercules, Calif., cat #500-0002). The membrane solution was then aliquoted and frozen at −70 to −85° C. until needed. Binding Assays utilized the membranes described above.

| IC50 [nM] | Structure (SMILES) |
| --- | --- |
| 130 | N#CC1(CCCN2CCC(O)(c3ccc(F)cc3)CC2)c2ccccc2CSc2ccccc21 (centres unmarked) |
| 480 | Cc1cccc(C2(O)CCN(CCCC3(C#N)c4ccccc4CSc4ccccc43)CC2)c1 (centres unmarked) |
